Experimental data published in PubChem BioAssay AID1220 (Sanford-Burnham Center for Chemical Genomics, 2008).
The list shows a part of the results, in another mix than the full data. The source made the active and inactive calls. Cut-off read from the data, not from the text of the source: active = inhibition above about 50%; inactive = the rest.

Chains of the proteins cited; added tags and fusions are not shown.
UniProt P34949, whole entry: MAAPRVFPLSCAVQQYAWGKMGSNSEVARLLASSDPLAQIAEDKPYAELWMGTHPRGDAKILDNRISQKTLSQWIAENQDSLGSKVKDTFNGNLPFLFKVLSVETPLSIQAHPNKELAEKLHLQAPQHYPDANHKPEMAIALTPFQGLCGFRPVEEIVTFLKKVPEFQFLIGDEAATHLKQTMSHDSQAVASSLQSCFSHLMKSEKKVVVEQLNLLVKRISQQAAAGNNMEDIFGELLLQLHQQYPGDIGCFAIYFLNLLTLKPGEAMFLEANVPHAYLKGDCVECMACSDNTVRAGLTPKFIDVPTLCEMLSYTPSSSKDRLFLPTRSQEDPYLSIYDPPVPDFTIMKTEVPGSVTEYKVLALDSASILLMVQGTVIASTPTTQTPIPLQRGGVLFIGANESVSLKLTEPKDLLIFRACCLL

Target: Mannose-6-phosphate isomerase (Homo sapiens) (UniProt P34949)
Assay: human PMI inhibitors, high substrate, primary screen, biochemical, fluorescence intensity, high mannose 6-phosphate (AID 1220)
Details: recombinant PMI enzyme, coupled fluorescence intensity; at 20 µM; hits give high values

| SMILES | inhibition |
| --- | --- |
| CP(=O)(Nc1ccc2c(c1)OCCO2)Oc1ccccc1 (configuration not stated) | inactive: -2.1% |
| Cc1ccccc1NP(C)(=O)Nc1ccccc1C | inactive: 3.5% |
| CCOP(C)(=S)SCC(=O)NC(C)(CC)C(=O)O (configuration not stated) | inactive: 16.4% |
| O=[N+]([O-])c1cc([N+](=O)[O-])c(NCC2CCS(=O)(=O)C2)c([N+](=O)[O-])c1 (configuration not stated) | inactive: 35.7% |
| COc1ccc(OP(C)(=O)Nc2cccc(Br)c2)cc1 (configuration not stated) | inactive: 0.9% |
| CN(C)CCOC(=O)C(O)(c1ccccc1)C1CCCCC1 (configuration not stated) | inactive: 4.1% |
| COc1ccc(NP(C)(=O)Oc2ccccc2OC)cc1 (configuration not stated) | inactive: -7.1% |
| CCN(CC)CCCOC(=O)C(O)(c1ccccc1)C1CCCCC1 (configuration not stated) | inactive: -18.2% |
| CP(=O)(Nc1ccccc1)Oc1ccc(F)cc1 (configuration not stated) | inactive: -9.7% |
| CCOC(=O)c1ccc(NP(C)(=O)Oc2ccc(F)cc2)cc1 (configuration not stated) | inactive: 0.7% |
| COc1ccc(OP(C)(=O)Nc2ccc(SC(F)(F)F)cc2)cc1 (configuration not stated) | inactive: -13.1% |
| O=C(OCCN1CCN(CCOCc2ccccc2)CC1)C(O)(c1ccccc1)c1ccccc1 | inactive: -26.9% |
| CP(=O)(Nc1ccccc1F)Oc1ccccc1 (configuration not stated) | inactive: 0.4% |
| CC(C)c1ccc(OP(C)(=O)Nc2ccc(SC(F)(F)F)cc2)cc1 (configuration not stated) | inactive: 18.9% |
| Cc1c(NP(C)(=O)Oc2ccc(C(C)C)cc2)c(=O)n(-c2ccccc2)n1C (configuration not stated) | inactive: -15.4% |
| COc1ccccc1OP(C)(=O)Nc1ccc(C)cc1C (configuration not stated) | inactive: 3.4% |
| CP(=O)(Nc1ccccn1)Oc1ccccc1 (configuration not stated) | inactive: 3.6% |
| CCc1ccc(OP(C)(=O)O)cc1 | inactive: 3.2% |
| COc1ccc(OP(C)(=O)Nc2ccccn2)cc1 (configuration not stated) | inactive: 5.6% |
| CN(C)CCOC(=O)C(O)(c1ccccc1)C1CCCC1 (configuration not stated) | inactive: -6.1% |
| CP(=O)(OCCOc1ccccc1)OCCOc1ccccc1 | inactive: 12.3% |
| CP(=O)(Nc1ccc(Cl)cc1Cl)Oc1ccccc1 (configuration not stated) | inactive: -1.2% |
| Cc1cc(C)cc(OP(C)(=O)Nc2cccc(C(F)(F)F)c2)c1 (configuration not stated) | inactive: 12.1% |

| SMILES | inhibition |
| --- | --- |
| COc1ccccc1OP(C)(=O)Nc1ccc(C)c(C)c1 (configuration not stated) | inactive: -2.7% |
| COc1ccc(OP(C)(=O)Nc2ccccc2Br)cc1 (configuration not stated) | inactive: -5.7% |
| CCOC(=O)c1ccc(NP(C)(=O)Oc2ccc(Cl)cc2)cc1 (configuration not stated) | inactive: -3.9% |
| CP(=O)(OC12CC3CC(CC(C3)C1)C2)OC12CC3CC(CC(C3)C1)C2 | inactive: -2.6% |
| CC(C)(C)c1ccc(OP(C)(=O)O)cc1 | inactive: -4.8% |
| COc1ccccc1OP(C)(=O)Nc1ccccc1Br (configuration not stated) | inactive: -7.8% |
| CP(=O)(Nc1ccc(Cl)cc1)Oc1ccc(F)cc1 (configuration not stated) | inactive: -3.2% |
| CN(C)C(=O)c1c([N+](=O)[O-])cc([N+](=O)[O-])cc1[N+](=O)[O-] | active: 53.4% |
| COc1ccc(OP(C)(=O)Nc2ccc(Br)cc2)cc1 (configuration not stated) | inactive: 11.3% |
| CCN(CC)CC(O)COC(=O)C(O)(c1ccccc1)C1CCCCC1 (configuration not stated) | inactive: -2.3% |
| COc1ccccc1OP(C)(=O)Nc1c(C)n(C)n(-c2ccccc2)c1=O (configuration not stated) | inactive: 7.3% |
| CCc1ccc(OP(C)(=O)Nc2cccnc2)cc1 (configuration not stated) | inactive: -1.4% |
| CP(=O)(Oc1ccccc1)N1CCOC1=O (configuration not stated) | inactive: 3.7% |
| CCOC(=O)c1ccc(NP(C)(=O)Oc2ccc(OC)cc2)cc1 (configuration not stated) | inactive: -9.5% |
| CCOP(C)(=S)SCC(=O)NC(C)C(=O)O (configuration not stated) | inactive: 9.6% |
| CP(=O)(Nc1ccccn1)Oc1ccc(Cl)cc1 (configuration not stated) | inactive: -3.3% |
| CP(=O)(Oc1ccccc1)OC(c1ccccc1)C(F)(F)F (configuration not stated) | inactive: 0.1% |
| Cc1cccc(C)c1OP(C)(=O)Nc1ccc(SC(F)(F)F)cc1 (configuration not stated) | inactive: 25.3% |
| Cc1cc(C)cc(OP(C)(=O)Nc2ccc(SC(F)(F)F)cc2)c1 (configuration not stated) | inactive: 15.5% |
| CP(=O)(NC(=O)Nc1ccccc1)Oc1ccccc1 (configuration not stated) | inactive: -1.8% |
| CP(=S)(Nn1cnnc1)Oc1ccccc1 (configuration not stated) | inactive: 9.7% |
| CP(=O)(Nc1ccccc1Br)Oc1ccccc1 (configuration not stated) | inactive: 3.3% |
| COc1ccccc1OP(C)(=O)Nc1ccccc1 (configuration not stated) | inactive: 0.7% |

| SMILES | inhibition |
| --- | --- |
| Cc1ccc(NP(C)(=O)Oc2ccccc2)c(C)c1 (configuration not stated) | inactive: -7.5% |
| COc1ccccc1OP(C)(=O)Nc1ccc(C)cc1 (configuration not stated) | inactive: 9.4% |
| CCOC(=O)c1ccc(NP(C)(=O)Oc2ccccc2)cc1 (configuration not stated) | inactive: 6.3% |
| Cc1cc(C)cc(OP(C)(N)=O)c1 (configuration not stated) | inactive: 8.5% |
| COc1ccc(OP(C)(=O)Nc2cccc(F)c2)cc1 (configuration not stated) | inactive: 2.6% |
| COc1ccccc1OP(C)(=O)Nc1cc(Cl)ccc1C (configuration not stated) | inactive: 4.5% |
| Cc1cccc(C)c1OP(C)(N)=O (configuration not stated) | inactive: -35% |
| CC(C)(C)c1ccc(OP(C)(=O)Nc2ccc(SC(F)(F)F)cc2)cc1 (configuration not stated) | inactive: 12.2% |
| CCN(CC)CCCOC(=O)C(O)(c1ccccc1)c1ccccc1 | inactive: -3.7% |
| Cc1ccc(C)c(NP(C)(=O)Oc2ccccc2)c1 (configuration not stated) | inactive: -0.2% |
| CP(=O)(Nc1cccc(Br)c1)Oc1ccccc1 (configuration not stated) | inactive: 7.9% |
| Cc1cc(C)cc(OP(C)(=O)Nc2ccccn2)c1 (configuration not stated) | inactive: 6.5% |
| CCOC(=O)c1ccc(NP(C)(=O)Oc2cc(C)cc(C)c2)cc1 (configuration not stated) | inactive: 4.6% |
| Cc1cc(C)cc(OP(C)(=O)Nc2ccc(C)cc2C)c1 (configuration not stated) | inactive: 3.1% |
| CC1=NCCc2c1[nH]c1ccccc21.O=[N+]([O-])c1cc([N+](=O)[O-])c(O)c([N+](=O)[O-])c1 | inactive: -2.2% |
| COc1ccccc1OP(C)(=O)Nc1c(C)cccc1C (configuration not stated) | inactive: -5.9% |
| CN1CCCCC1COC(=O)C1(O)c2ccccc2CCc2ccccc21 (configuration not stated) | inactive: 15.3% |
| CP(=O)(Nc1ccc(SC(F)(F)F)cc1)Oc1ccccc1 (configuration not stated) | inactive: 2.9% |
| CCCOc1ccc(NP(C)(=O)Oc2ccc(Cl)cc2)cc1 (configuration not stated) | inactive: 2.1% |
| Cc1nc2ccc3ccccc3c2s1.O=[N+]([O-])c1cc([N+](=O)[O-])c(O)c([N+](=O)[O-])c1 | inactive: 20% |
| O=[N+]([O-])c1cc([N+](=O)[O-])c(-n2nnc3ccccc32)c([N+](=O)[O-])c1 | inactive: 3.4% |
